# Binding of CDR-mutated scFvs to a peptide of the spike HR2 region

Reference: Engelhart et al. 2022, doi:10.1038/s41597-022-01779-4. File: FLAb, binding data.

The target is the same throughout: PDVDLGDISGINAS, from the HR2 region of SARS-CoV-2 spike.

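Phage display of a naive human antibody library on the peptide gave the parent. The library (AAYL49) carries one to three amino acid substitutions per variant, with no insertions or deletions. The assay is AlphaSeq: two haploid yeast populations carry antibody and antigen on their surface. Binding brings cells together so that they mate, and sequencing counts the barcode pairs among the diploids. A regression on co-assayed BCL2-family reference pairs converts the normalised counts of each replicate to an apparent Kd. There are three technical replicates.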

Parent: Ab-14, a human scFv built as VH, the linker GGGGSGGGGSGGGGS, VL. Only the CDRs of the heavy chain vary.
VH: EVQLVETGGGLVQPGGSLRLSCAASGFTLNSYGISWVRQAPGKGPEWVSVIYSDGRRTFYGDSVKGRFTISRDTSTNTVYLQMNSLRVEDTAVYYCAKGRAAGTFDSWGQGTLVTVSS
VL: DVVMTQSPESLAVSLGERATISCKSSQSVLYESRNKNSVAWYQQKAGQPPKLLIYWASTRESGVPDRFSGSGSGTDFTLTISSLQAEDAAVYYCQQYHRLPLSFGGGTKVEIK

Changes read parent residue, position, new residue, counted from the first residue of the VH shown.
Every variant below is changed at S31 of the VH (sequential numbering).
The Kd shown is the geometric mean over detected replicates; a lower Kd is a better binder.
"no signal" means that the variant was in the library but no mating with the target was seen in any replicate; the authors take this as a sign of poor binding, and no number exists.
As a blank, each scFv also met three strains without target: over library AAYL49, 15% of these pairings were detected, typically at 11 µM and seldom below 680 nM.

The variant L29V S31M D106V showed 15 nM (3 of 3 replicates). For S31E R56W G103V, the assay gave 1.5 µM (1 of 3 replicates). The variant G26C S31P G103R showed no signal (0 of 3 replicates). The variant S31G G99F showed 100 µM (1 of 3 replicates). The variant S31F D54L T104P gave 62 µM (2 of 3 replicates). The variant S31C S35V V64H showed no signal (0 of 3 replicates). The variant S31I R57C S63D showed no signal (0 of 3 replicates). The variant S31R G61Y V64M gave no signal (0 of 3 replicates). With F27V S31M G33K the result was 2.4 µM (1 of 3 replicates).

The variant S31I I51M F105G showed no signal (0 of 3 replicates). For G26K S31K V50R, the assay gave no signal (0 of 3 replicates). The variant S31K A102H showed 130 nM (3 of 3 replicates). The variant S31Q V64S gave 200 nM (3 of 3 replicates). The variant S31G G99S R100A gave 60 µM (1 of 3 replicates). With G26A S31E the result was 190 µM (1 of 3 replicates). For S31R F59C K65R, the assay gave 430 nM (2 of 3 replicates). For S31A D106H, the assay gave 4.0 µM (1 of 3 replicates). For T28I S31L S107R, the assay gave 760 nM (3 of 3 replicates).

For S31C R56I K65H, the assay gave 720 nM (3 of 3 replicates). The variant S31P Y52R K65A showed no signal (0 of 3 replicates). For S31E I51D A101I, the assay gave 38 nM (3 of 3 replicates). With S31F S35P A102F the result was no signal (0 of 3 replicates). The variant S31K R57L Y60C showed 13 µM (1 of 3 replicates). For S31E V50M G103Y, the assay gave no signal (0 of 3 replicates). With S31Y F105Y the result was 1.5 µM (3 of 3 replicates). For S31Q Y60K R100Q, the assay gave 19 µM (1 of 3 replicates). The variant S31E D54E V64R gave no signal (0 of 3 replicates).

For S31M I51L Y52W, the assay gave no signal (0 of 3 replicates). The variant S31E A101H D106V showed 1.2 nM (3 of 3 replicates). With S31I R56M S107A the result was 520 nM (1 of 3 replicates). With S31P T58K the result was 5.2 µM (2 of 3 replicates). With S31K F59Y K65G the result was 590 nM (3 of 3 replicates). With S31T S35P G99I the result was no signal (0 of 3 replicates). For S31E K65S, the assay gave 2.5 nM (3 of 3 replicates). With S31W R100G F105H the result was 770 µM (1 of 3 replicates). The variant N30I S31I D54L showed 1.2 µM (1 of 3 replicates).

The variant S31N G61L T104W showed 55 nM (3 of 3 replicates). The variant F27I S31K F59H gave no signal (0 of 3 replicates). The variant S31A I51N A102V gave no signal (0 of 3 replicates). With S31R R57P S63Y the result was 67 µM (2 of 3 replicates). For S31A A102G S107I, the assay gave 470 nM (3 of 3 replicates). The variant S31G F105M D106H gave no signal (0 of 3 replicates). With S31C G103K the result was 31 µM (2 of 3 replicates). For S31P T58V, the assay gave 990 nM (1 of 3 replicates). For F27L S31A R56M, the assay gave 1.6 µM (3 of 3 replicates).

With S31M I51S D62F the result was no signal (0 of 3 replicates). With L29K S31T F59W the result was 22 µM (2 of 3 replicates). For L29W S31A Y60M, the assay gave 2.1 µM (1 of 3 replicates). With S31D D62L T104N the result was no signal (0 of 3 replicates).

Repeated from above, the 4 best binders with a signal in all replicates:

{"changes": "S31E A101H D106V", "Kd": "1.2 nM", "replicates with signal": "3 of 3"}
{"changes": "S31E K65S", "Kd": "2.5 nM", "replicates with signal": "3 of 3"}
{"changes": "L29V S31M D106V", "Kd": "15 nM", "replicates with signal": "3 of 3"}
{"changes": "S31E I51D A101I", "Kd": "38 nM", "replicates with signal": "3 of 3"}